Reference: PubChem BioAssay AID651704 (Broad Institute, 2012)
Only a part is listed here, and it is no random draw. The source made the active and inactive calls.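 The calls were made as follows: active = every replicate reaching a set inhibition limit, whatever the replicate mean (cut at about 25% in these data); inconclusive = mean inhibition reaches that limit but some replicates miss it; inactive = the rest.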

By UniProt entry, the sequences of proteins in these tests, tags left out.
UniProt P42568, whole entry: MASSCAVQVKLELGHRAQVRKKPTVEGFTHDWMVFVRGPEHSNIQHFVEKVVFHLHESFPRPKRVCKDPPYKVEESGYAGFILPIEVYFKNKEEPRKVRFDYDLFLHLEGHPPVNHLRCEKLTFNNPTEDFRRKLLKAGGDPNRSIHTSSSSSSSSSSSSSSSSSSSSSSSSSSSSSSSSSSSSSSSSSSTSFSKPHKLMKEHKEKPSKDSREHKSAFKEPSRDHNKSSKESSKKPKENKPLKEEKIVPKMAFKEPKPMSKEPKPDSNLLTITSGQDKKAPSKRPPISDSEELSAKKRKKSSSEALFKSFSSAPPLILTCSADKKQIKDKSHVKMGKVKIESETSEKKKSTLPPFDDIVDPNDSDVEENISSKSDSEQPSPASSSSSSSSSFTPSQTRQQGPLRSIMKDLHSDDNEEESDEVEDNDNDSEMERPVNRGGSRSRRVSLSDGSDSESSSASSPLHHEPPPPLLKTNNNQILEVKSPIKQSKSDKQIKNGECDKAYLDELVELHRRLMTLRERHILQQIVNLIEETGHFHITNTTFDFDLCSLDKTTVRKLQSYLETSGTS

Each compound was assayed against Protein AF-9 (Homo sapiens) (UniProt P42568) (assay: MLL-AF4/AF9 protein interaction blockers – biochemical, AlphaScreen, biotin-AF4 peptide, FLAG-AF9, single point, primary screen (AID 651704;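 also: 0% = plate neutral control median and 100% = total signal loss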)). Settings: biotin-AF4 peptide binding to FLAG-AF9, at 10 µM, active compounds read high.

Row | SMILES | inhibition
1 | CN1CCC(Nc2ccc(Cl)cc2)CC1 | inactive: 1.83%
2 | COc1cccc(C(=O)N(c2cc(C)cc(C)c2)C2CCN(C(=O)OC(C)(C)C)CC2)c1 | inactive: 1.06%
3 | COc1cccc(C(c2nnnn2C2CCCC2)N2CCC(n3c(=O)[nH]c4ccccc43)CC2)c1OC (stereo unspecified) | inactive: 5.11%
4 | COc1cc(OC)cc(C(=O)NCC2(N3CCOCC3)CCCCC2)c1 | inactive: -0.996%
5 | CC(C)(C)OC(=O)N1CCC(Nc2ccccc2)CC1 | inactive: 0.845%
6 | NN(c1ccccc1)C1CCN(CCc2ccccc2)CC1 | inactive: 11.9%
7 | O=C(O)C1(Nc2ccccc2)CCN(Cc2ccccc2)CC1 | inactive: 3.87%
8 | O=c1[nH]c2ccccc2n1C1CCN(C(c2cc3ccccc3o2)c2nnnn2C2CCCC2)CC1 (stereo unspecified) | inactive: 3.21%
9 | CCCOc1ccc(C(=O)NCC2(N(C)C)CCCCC2)cc1 | inactive: 0.612%
10 | CN1CCC(Nc2ccc(F)c(Cl)c2)CC1 | inactive: 0.241%
11 | O=C(NCC1(N2CCCCC2)CCCCC1)c1ccco1 | inactive: -0.771%
12 | CN(C)c1ccc(C(=O)NCC2(N3CCCCC3)CCCCC2)cc1 | inactive: 2.4%
13 | Cn1c(=O)[nH]cc(N(CCCl)CCCl)c1=O | inactive: 2.55%
14 | Cc1ccccc1NC1(C#N)CCN(Cc2ccccc2)CC1 | inactive: 1.71%
15 | COc1ccc(C(c2nnnn2C2CCCCC2)N2CCC(n3c(=O)[nH]c4ccccc43)CC2)cc1 (stereo unspecified) | inactive: 5.7%
16 | CC(C)(C)n1nnnc1C(c1ccnc2ccccc12)N1CCC(n2c(=O)[nH]c3ccccc32)CC1 (stereo unspecified) | inactive: -28.5%
17 | Cc1ccc(C(=O)NCC2(N3CCCCC3)CCCCC2)o1 | inactive: -1.51%
18 | Fc1ccccc1NC1CCN(Cc2ccccc2)CC1 | inactive: 3.34%
19 | Cc1ccc(NC2(C#N)CCN(Cc3ccccc3)CC2)cc1 | inactive: -2.4%
20 | COc1cccc(C(c2nnnn2C2CCCCC2)N2CCC(n3c(=O)[nH]c4ccccc43)CC2)c1OC (stereo unspecified) | inactive: -1.39%
21 | CC(=O)N(c1ccccc1)C1CCNCC1 | inactive: -1.79%
22 | COc1cc(OC)cc(C(=O)NCC2(N3CCCCC3)CCCCC2)c1 | inactive: 2.56%
23 | O=c1[nH]c2ccccc2n1C1CCN(C(c2ccnc3ccccc23)c2nnnn2C2CCCCC2)CC1 (stereo unspecified) | inactive: -0.815%
24 | CC(C)(C)n1nnnc1C(c1cccc2ccccc12)N1CCC(n2c(=O)[nH]c3ccccc32)CC1 (stereo unspecified) | inactive: 1.28%

Row | SMILES | inhibition
25 | CN(C)C1(CNC(=O)c2cccc(C#N)c2)CCCCC1 | inactive: -0.285%
26 | C/C(N)=N\P(=O)(Oc1ccccc1)Oc1ccccc1 | inactive: 4.82%
27 | Cc1cc(N(CCCl)CCCl)ccc1C=O | inactive: -2.79%
28 | CCCN1CCC(Nc2cc(OC)cc(OC)c2)CC1 | inactive: 15.1%
29 | O=c1[nH]c2ccccc2n1C1CCN(C(c2ccccc2)c2nnnn2C2CCCC2)CC1 (stereo unspecified) | inactive: 2.05%
30 | N#Cc1ccc(C(=O)NCC2(N3CCCCC3)CCCCC2)cc1 | inactive: -1.39%
31 | CC(C)(C)OC(=O)N1CCC(N(C(=O)c2ccccc2)c2ccc(Cl)cc2)CC1 | inactive: 2.54%
32 | O=c1[nH]c2ccccc2n1C1CCN(C(c2cccs2)c2nnnn2C2CCCC2)CC1 (stereo unspecified) | inactive: -0.419%
33 | CCCCn1nnnc1C(c1cccc(OC)c1OC)N1CCC(n2c(=O)[nH]c3ccccc32)CC1 (stereo unspecified) | inactive: 2.37%
34 | CCOC(=O)N1CCC(Nc2ccc(C)cc2)CC1 | inactive: 1.16%
35 | COc1cccc(C(c2nnnn2C(C)(C)C)N2CCC(n3c(=O)[nH]c4ccccc43)CC2)c1OC (stereo unspecified) | inactive: 4.13%
36 | O=c1[nH]c2ccccc2n1C1CCN(C(c2cccs2)c2nnnn2C2CCCCC2)CC1 (stereo unspecified) | inactive: 1.96%
37 | COc1ccc(C(=O)NCC2(N3CCOCC3)CCCCC2)cc1OC | inactive: -0.398%
38 | O=c1[nH]c2ccccc2n1C1CCN(C(c2ccnc3ccccc23)c2nnnn2C2CCCC2)CC1 (stereo unspecified) | inactive: -0.566%
39 | CCCCn1nnnc1C(c1ccccc1)N1CCC(n2c(=O)[nH]c3ccccc32)CC1 (stereo unspecified) | inactive: 4.23%
40 | COc1cc(C(=O)NCC2(N3CCOCC3)CCCCC2)cc(OC)c1C | inactive: 1.39%
41 | O=C(NCC1(N2CCOCC2)CCCCC1)c1cc(Br)ccc1Cl | inactive: 2.9%
42 | COc1ccc(C(c2nnnn2C2CCCC2)N2CCC(n3c(=O)[nH]c4ccccc43)CC2)cc1 (stereo unspecified) | inactive: 0.316%
43 | Cc1ccc(C(=O)NCC2(N(C)C)CCCCC2)o1 | inactive: -2.4%
44 | CCCOc1ccc(C(=O)NCC2(N(C)C)CCCCC2)cc1OC | inactive: -12.3%
45 | CN1CCC(Nc2cccc(F)c2)CC1 | inactive: 1.58%
46 | O=C(NCC1(N2CCCCC2)CCCCC1)c1cncc(Br)c1 | inactive: 3.49%
47 | COc1cc(OC)c(C(=O)NCC2(N(C)C)CCCCC2)cc1OC | inactive: 0.571%
48 | CCC(c1nnnn1C(C)(C)C)N1CCC(n2c(=O)[nH]c3ccccc32)CC1 (stereo unspecified) | inactive: 3.46%

Row | SMILES | inhibition
49 | O=C(NCC1(N2CCOCC2)CCCCC1)c1cc(F)c(F)cc1Cl | inactive: -1.04%
50 | CCCCn1nnnc1C(c1ccnc2ccccc12)N1CCC(n2c(=O)[nH]c3ccccc32)CC1 (stereo unspecified) | inactive: -0.313%
51 | CC(C)c1ccc(NC2CCN(C(=O)OC(C)(C)C)CC2)cc1 | inactive: 5.93%
52 | COc1ccc(CN(CCCl)CCCl)cc1Cl | inactive: 4.09%
53 | CN(C)c1cccc(C(=O)NCC2(N3CCCCC3)CCCCC2)c1 | inactive: 12.8%
54 | COc1cc(C(=O)NCC2(N3CCCCC3)CCCCC2)ccc1OC(F)F | inactive: -2.08%
55 | CC(C)c1ccc(C(=O)NCC2(N3CCOCC3)CCCCC2)cc1 | inactive: 0.439%
56 | COc1ccc(NC2CCN(C(=O)OC(C)(C)C)CC2)cc1 | inactive: -3.78%
57 | CN1CCN(CCOC(=O)C(O)(c2ccccc2)c2ccccc2)CC1 | inactive: 1.76%
58 | CCCCn1nnnc1C(c1cccc2ccccc12)N1CCC(n2c(=O)[nH]c3ccccc32)CC1 (stereo unspecified) | inactive: -14.8%
59 | O=C(NCC1(N2CCCCC2)CCCCC1)c1cccc(C(F)(F)F)c1 | inactive: 6.73%
60 | CCN1CCC(Nc2ccc(Cl)cc2)CC1 | inactive: -0.132%
61 | O=c1[nH]c2ccccc2n1C1CCN(C(c2ccccc2OC(F)(F)F)c2nnnn2C2CCCC2)CC1 (stereo unspecified) | inactive: -5.12%
62 | CSc1ccc(C(=O)NCC2(N3CCOCC3)CCCCC2)cc1 | inactive: 5.49%
63 | O=C(NCC1(N2CCCCC2)CCCCC1)c1cccc([N+](=O)[O-])c1 | inactive: -0.288%
64 | CC(C)(C)n1nnnc1C(c1ccccc1OC(F)(F)F)N1CCC(n2c(=O)[nH]c3ccccc32)CC1 (stereo unspecified) | inactive: -2.17%
65 | O=C(NCC1(N2CCCCC2)CCCCC1)c1ccc(OC(F)F)cc1 | inactive: 3.23%
66 | CCOC(=O)N1CCC(Nc2cccc(C)c2)CC1 | inactive: 3.88%
67 | COc1cc(C(=O)NCC2(N(C)C)CCCCC2)ccc1OC(F)F | inactive: 0.142%
68 | O=c1[nH]c2ccccc2n1C1CCN(C(c2cccc3ccccc23)c2nnnn2C2CCCC2)CC1 (stereo unspecified) | inactive: 9.87%
69 | O=c1[nH]c2ccccc2n1C1CCN(C(c2ccccc2)c2nnnn2C2CCCCC2)CC1 (stereo unspecified) | inactive: -10.6%
70 | CCCCOc1ccc(C(=O)NCC2(N3CCOCC3)CCCCC2)cc1 | inactive: -13.6%
71 | O=P1(N(CCCl)CCCl)SCCCS1 | inactive: -3.65%
72 | CCCCn1nnnc1C(c1cc2ccccc2o1)N1CCC(n2c(=O)[nH]c3ccccc32)CC1 (stereo unspecified) | inactive: -0.236%

Row | SMILES | inhibition
73 | O=C(NCC1(N2CCCCC2)CCCCC1)c1ccc(F)cc1 | inactive: 1.73%
74 | CCOC(=O)N1CCC(Nc2ccc(F)cc2)CC1 | inactive: -1.43%
75 | CC(C)(C)n1nnnc1C(c1ccccc1)N1CCC(n2c(=O)[nH]c3ccccc32)CC1 (stereo unspecified) | inactive: 0.912%
76 | O=C1CCN(Cc2ccccc2)CC1 | inactive: 2.53%
77 | CCOc1ccc(C)cc1CN(CCCl)CCCl | inactive: 4.2%
78 | O=C(NCC1(N2CCCCC2)CCCCC1)c1ccc(Cl)s1 | inactive: 2.62%
79 | O=c1[nH]c2ccccc2n1C1CCN(C(c2cc3ccccc3o2)c2nnnn2C2CCCCC2)CC1 (stereo unspecified) | inactive: 2.91%
80 | O=C(OC1CN2CCC1CC2)C1c2ccccc2Oc2ccccc21 (stereo unspecified) | inactive: 6.21%
81 | COc1ccc(Cl)cc1C(=O)NCC1(N2CCOCC2)CCCCC1 | inactive: -21.2%
82 | CCOC(=O)N1CCC(Nc2ccc(OC)cc2)CC1 | inactive: 7.31%
83 | CCCCn1nnnc1C(c1ccc(OC)cc1)N1CCC(n2c(=O)[nH]c3ccccc32)CC1 (stereo unspecified) | inactive: -0.511%
84 | O=C(NCC1(N2CCCCC2)CCCCC1)c1ccc(Cl)nc1 | inactive: 1.79%
85 | O=c1[nH]c2ccccc2n1C1CCN(C(c2ccccc2OC(F)(F)F)c2nnnn2C2CCCCC2)CC1 (stereo unspecified) | inactive: -3.5%
86 | Cc1cc(C)cc(N(C(=O)c2ccccc2)C2CCN(C(=O)OC(C)(C)C)CC2)c1 | inactive: 4.54%
87 | CSc1ccccc1C(=O)NCC1(N2CCCCC2)CCCCC1 | inactive: 4.05%
88 | Cc1cccc(NC2(C#N)CCN(Cc3ccccc3)CC2)c1 | inactive: -2.08%
89 | COc1ccc(C(=O)NCC2(N3CCCCC3)CCCCC2)cc1 | inactive: 2.23%
90 | CC(C)(C)OC(=O)N1CCC(N(C(=O)c2ccccc2)c2ccc(F)cc2)CC1 | inactive: -8.04%
91 | COc1ccc(C(=O)NCC2(N3CCCCC3)CCCCC2)c(OC)c1OC | inactive: 2.59%
92 | CCC(c1nnnn1C1CCCC1)N1CCC(n2c(=O)[nH]c3ccccc32)CC1 (stereo unspecified) | inactive: 6.75%
93 | O=C(NCC1(N2CCCCC2)CCCCC1)c1ccc(=O)[nH]c1 | inactive: -0.184%
94 | O=C(NCC1(N2CCCCC2)CCCCC1)c1cccs1 | inactive: 3.37%
95 | CCCCn1nnnc1C(CC)N1CCC(n2c(=O)[nH]c3ccccc32)CC1 (stereo unspecified) | inactive: -0.88%
96 | CCCCn1nnnc1C(c1cccs1)N1CCC(n2c(=O)[nH]c3ccccc32)CC1 (stereo unspecified) | inactive: 2.18%
